The values below are quoted from earlier work in US10195284B2, “Compositions and methods for controlled localized delivery of bone forming therapeutic agents” (University of Rochester, priority 2013, dated 2019).

For orientation: half-life means the time in which the quantity being followed falls by half.

The conditions of the series: rats; cited from earlier work.

On to Maraviroc, for which the half-life was 54 min.
